Test results as given in patent publication US11021481B2, “Substituted isoindolin-1-ones and 2,3-dihydro-1h-pyrrolo[3,4-c]pyridin-1-ones as HPK1 antagonists” (Nimbus Saturn, Inc., priority 2019, dated 2021).
pIC50: −log10 of the molar value.

Amino acid sequences for entries named in this document (tags omitted).
UniProt Q92918, whole entry: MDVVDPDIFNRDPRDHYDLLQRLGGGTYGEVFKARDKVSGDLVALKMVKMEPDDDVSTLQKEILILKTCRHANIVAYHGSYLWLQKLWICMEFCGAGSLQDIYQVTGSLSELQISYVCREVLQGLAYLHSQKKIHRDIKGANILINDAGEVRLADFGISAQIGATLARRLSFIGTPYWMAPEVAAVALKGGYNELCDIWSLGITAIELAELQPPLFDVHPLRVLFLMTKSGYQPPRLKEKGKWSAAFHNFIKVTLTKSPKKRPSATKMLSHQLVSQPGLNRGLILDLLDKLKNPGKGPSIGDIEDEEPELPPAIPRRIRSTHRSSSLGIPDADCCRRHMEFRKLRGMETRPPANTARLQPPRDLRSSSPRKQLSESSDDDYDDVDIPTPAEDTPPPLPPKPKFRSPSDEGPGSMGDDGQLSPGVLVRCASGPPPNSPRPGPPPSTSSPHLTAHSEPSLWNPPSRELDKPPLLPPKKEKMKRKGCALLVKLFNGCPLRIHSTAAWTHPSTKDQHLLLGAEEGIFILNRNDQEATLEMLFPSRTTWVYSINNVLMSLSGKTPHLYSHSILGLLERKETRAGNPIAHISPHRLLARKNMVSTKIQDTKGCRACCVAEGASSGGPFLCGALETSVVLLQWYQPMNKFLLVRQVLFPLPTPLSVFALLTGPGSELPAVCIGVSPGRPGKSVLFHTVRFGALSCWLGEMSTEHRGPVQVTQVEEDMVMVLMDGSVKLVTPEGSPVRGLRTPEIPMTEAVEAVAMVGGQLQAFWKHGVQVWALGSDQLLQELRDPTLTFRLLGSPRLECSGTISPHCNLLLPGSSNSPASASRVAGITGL

Target: HPK1 (Homo sapiens (Human), UniProt Q92918)
Experiment: HPK1 biochemical enzyme assay (microfluidic mobility shift assay)
Settings: 1.5 nM HPK1, ATP 1 mM final, 30 min preincubation, 60 min at RT, Caliper EZ Reader; read-out: HPK1 1000UMATP caliper IC50
Method: HPK1 biochemical enzyme assay: HPK1 enzyme inhibition was measured using a microfluidic mobility shift assay. […] Test compounds were titrated in ten point curves (top final assay concentration 3 μM), and preincubated with enzyme/substrate mix for 30 min prior to initiation of the reaction by addition of ATP (1 mM final concentration) and substrate (1 μM final concentration; Carna Biosciences) diluted in assay buffer supplemented by MgCl2 (final assay concentration of 5 mM). Following 60 min incubation at RT, the reaction was terminated by addition of 60 µl/well termination buffer (Carna Biosciences) and signal determination using aCaliper EZ Reader (Perkin Elmer, UK).
The compound numbers correspond to the compound numbers in Table 1.

| Structure (SMILES) | pIC50 |
| --- | --- |
| CN(C)Cc1nc(Nc2ccc(-c3cnn4cc(F)ccc34)c3c2C(=O)NC3)ccc1[C@H]1CCOC1 [I-542, (R)-7-((6-((dimethylamino)-methyl)-5-(tetrahydrofuran-3-yl)pyridin-2-yl)amino)-4-(6-fluoropyrazolo [1,5-a]pyridin-3-yl)isoindolin-1-one] | > 7.00 |
| CN(C)Cc1nc(Nc2ccc(-c3cnn4cc(F)ccc34)c3c2C(=O)NC3)ccc1[C@@H]1CCOC1 [I-543, (S)-7-((6-((dimethylamino)-methyl)-5-(tetrahydrofuran-3-yl)pyridin-2-yl)amino)-4-(6-fluoropyrazolo [1,5-a]pyridin-3-yl)isoindolin-1-one] | > 7.00 |
